Test system: human mononucleated cells of the peripheral blood (PBMCs)
Assay: Incorporation of tritiated thymidine in PBMCs (proliferation)
Type: cell-based
Settings: IL-2 at 50 IU/ml, internal control
Description: The PBMCs were cultured for 7 days in RPMI culture medium containing 10% fetal calf serum in the absence of or in the presence of 1 ng/ml HARP protein or 1 μg/ml of peptides 1 or 2. The incorporation of tritiated thymidine was determined as described above.
Human mononucleated cells originating from different healthy donors were isolated from peripheral blood after centrifugation on a Ficoll-Hypaque pad (Pharmacia Biotech) in accordance with the manufacturer's instructions. The cells were washed then cultured in RPMI 1640 medium supplemented by 10% heat-inactivated fetal calf serum (56° C., 30 min), 100 units/ml of penicillin and 100 μg/ml of streptomycin. The cells were inoculated at the rate of 10^6 cells per ml in a 96-well (round bottoms) culture plate (Costar). They were cultured for 7 days in the presence or not of human recombinant HARP protein produced in E. coli at the concentration of 100 ng/ml. In the last 18 hours of culture, 1 μCi of tritiated thymidine was added to each of the wells. The radioactivity incorporated in the cell nuclei was then measured using a scintillation counter.

## IL-2: interleukin-2 at 50 IU/ml, internal control of stimulation [reference compound]
  stimulation of tritiated thymidine incorporation in PBMCs: No stimulation

— patent publication US6932973B2, “Peptides which stimulate the expression of the cytokines of inflammation and promote tissue regeneration” (Centre National de la Recherche Scientifique—CNRS, priority 1999, dated 2005)
